According to ChEMBL document CHEMBL5096169, “Recent progress in agents targeting polo-like kinases: Promising therapeutic strategies” (Eur J Med Chem, 2021):

Columns and labels:
Homo sapiens [1] = species: Homo sapiens; assay: Selectivity index, ratio of IC50 for inhibition of recombinant C-terminal 6His-tagged human PLK2-PBD to IC50 for inhibition of human PLK1-PBD
Homo sapiens [2] = species: Homo sapiens; assay: Selectivity index, ratio of IC50 for inhibition of recombinant N-terminal MBP-tagged human PLK3-PBD to IC50 for inhibition of human PLK1-PBD

Ratio IC50 (Homo sapiens [1]): 5 | Ratio IC50 (Homo sapiens [2]): 5
Compound: C[C@@]12CN(Cc3cccc(C#N)c3)C[C@@](C)(C1)c1c(-c3ccc4ccccc4c3)ccc(=O)n1C2
